Legend:
SK-MEL-2 cells = assay: Cell viability test (MTT) in SK-MEL-2 cells; details: in combination with dox-induced NGLY1 knockdown
Procedure: (§1) Despite the frequent failure of chemotherapy in patients with melanoma, chemotherapy remains a frontline approach for treatment, especially in many patients who cannot afford immunotherapy or targeted therapy. […] Identifying novel approaches to enhance the efficacy of chemotherapy and targeted therapy agents in melanoma will greatly benefit many cancer patients. […] The IC50 of each drug treatment in each cell clone was calculated using CalcuSyn 2.0.
(§2) The dose effect of dox-induced expression of NGLY1 shRNA in each cell clone was also determined. The IC50 of each drug treatment in each cell clone was calculated using CalcuSyn 2.0. To determine the interaction between NGLY1 knockdown and each anticancer agent, cells were exposed to four-dose combinations of dox and an anticancer agent at a fixed dose ratio. The combination index (CI) value was calculated using CalcuSyn 2.0. CI values of less than 1 are considered a synergistic interaction. […]
(§3) Cells were seeded into 96-well plates (2,500-5,000 cells/well, depending on cell types), incubated overnight, and treated as indicated. […] Reduced MTT was solubilized in DMSO for determination of absorbance at 570 nm. Absorbance of reduced MTS was directly measured in the reaction medium at 490 nm. The relative cell viability in each treatment condition was calculated based on absorbance values.

MALME3M cells = details: in combination with dox-induced NGLY1 knockdown
Procedure: as §1, §2, §3

SMILES | cytotoxicity in combination with NGLY1 knockdown (SK-MEL-2 cells) | cytotoxicity in combination with NGLY1 knockdown (MALME3M cells)
CN(C)/N=N/c1[nH]cnc1C(N)=O [dacarbazine, reference compound] | highly synergistic effect | highly synergistic effect
Cn1nnc2c(C(N)=O)ncn2c1=O [temozolomide, reference compound] | highly synergistic effect | highly synergistic effect

Reference: patent publication US11779592B2, “Inhibition of NGLY1 for the treatment of cancer” (University of North Texas Health Science Center, priority 2017, dated 2023)
